In one assay the test system is S. mutans UA159. Kind of assay: CFU/ml assay (bacteriostatic or bactericidal). Format: cell-based, Streptococcus mutans. The settings on record: 100 nM, CDM, one-way ANOVA with Sidak's posttest. How it is done:
To perform CFU/milliliter assays, S. mutans was grown overnight, washed, and resuspended in CDM as outlined above in the “Luciferase assays with chromosomal reporters” section, with the exception that replicate tubes for harvest at each time point for both no-tryglysin and tryglysin-treated conditions were inoculated from bacterial cultures resuspended overnight. […] At this time point (0 h) and at 1, 2, 4, 6, 8 and 24 h after tryglysin addition, a set of no-tryglysin and tryglysin-treated tubes were harvested. At each time point, 100 μl from each tube in a set was harvested and diluted 1:10 successively in fresh THY. Dilutions from 10^−3 to 10^−6 (depending on the time point) were plated as follows: for each dilution, 10 μl was plated in triplicate on THY agar plates and allowed to drip vertically down the plate. This allowed for the spread of S. mutans colonies for later CFU/ml counting. After each dilution plating, plates were placed at 37°C and incubated for 48 h. […] After 2 days of incubation, colonies were counted for each time point, replicate, and condition, and the number of CFU/milliliter was calculated. Drip plates were considered to have accurate counts if colonies were between 10 and 150 colonies per drip. […] Statistical analysis was performed using a one-way ANOVA with Sidak’s multiple comparison posttest on Graph Pad Prism.

The subject of a further assay is S. sanguinis ATCC 10556. As to the kind of experiment: growth inhibition by tryglysins. Format: cell-based, Streptococcus sanguinis. The conditions noted are these: 100 nM, CDM, Fig. S5; 'to a lower degree' than for S. agalactiae. The method, then:
(§1) For experiments to examine the effect of tryglysins, bacterial strains were grown from prestored glycerol stocks at −80°C and inoculated into THY broth. […] To monitor growth, OD600 was measured using a GENESYS 30 Vis spectrophotometer every hour.

The next assay has as its system S. agalactiae A909. As to the kind of experiment: growth inhibition by tryglysins. The conditions noted are these: 100 nM, CDM, Fig. S5. Format: cell-based, Streptococcus agalactiae. How it is done:
as §1

A further assay relates to S. bovis JB1. Kind of assay: growth inhibition by tryglysins. Format: cell-based, Streptococcus bovis. The conditions noted are these: 100 nM, CDM, Fig. S5; 'to a lower degree' than for S. agalactiae. The method, then:
as §1

No end group written: not given here.

As for “VNCWGKH (sidechain bridge or staple) [tryglysin B, 7-mer macrocyclic peptide VNCWGKH carrying the tetrahydro[5,6]benzindole modification, predicted product of the S. mutans wgk cluster]”, the CFU/milliliter vs untreated entry in the assay on S. mutans UA159 (6 h) and in the assay with S. mutans UA159 (8 h) was “statistically significant lower CFU/milliliter” in each case.

Turning to “VNSWGKH (also: sidechain bridge or staple (positions not given here)) [tryglysin A, macrocyclic 7-mer RiPP from S. ferus, VNSWGKH with tetrahydro[5,6]benzindole modification]”, the “inhibitory activity relative to variant B” value with S. sanguinis ATCC 10556, with S. agalactiae A909 and in the assay with S. bovis JB1 was “greater inhibitory activity” throughout. The CFU/milliliter vs untreated entry in the assay with S. mutans UA159 (6 h) and in the assay with S. mutans UA159 (8 h) was “statistically significant lower CFU/milliliter” each time.

These data come from paper PMC8092268, “Quorum Sensing in Streptococcus mutans Regulates Production of Tryglysin, a Novel RaS-RiPP Antimicrobial Compound” (mBio, 2021).
